Assay results as given in patent US10487148B2, “Methods and compositions for treating aging-associated impairments” (THE BOARD OF TRUSTEES OF THE LELAND STANFORD JUNIOR …, priority 2010, dated 2019).

Assays:
Assay type in all cases: in vivo, mouse
[1] = system: young adult (3 months) mice; assay: Radial arm water maze (RAWM), spatial learning and memory; conditions: vs vehicle
Protocol: (§1) Animals were placed in a stereotaxic frame and anesthetized with 2% isoflurane (2 L/min oxygen flow rate) delivered through an anesthesia nose cone. Ophthalmic eye ointment (Puralube Vet Ointment, Dechra) was applied to the cornea to prevent desiccation during surgery. The area around the incision was trimmed. Solutions were injected bilaterally into the DG of the dorsal hippocampi using the following coordinates: (from bregma) anterior=−2 mm, lateral=1.5 mm, (from skull surface) height=−2.1 mm. A 2 μl volume was injected stereotaxically over 10 minutes (injection speed: 0.20 μl/min) using a 5 μl 26s gauge Hamilton syringe. To limit reflux along the injection track, the needle was maintained in situ for 8 minutes, slowly pulled out half way and kept in position for an additional two minutes. The skin was closed using silk suture. Each mouse was injected subcutaneously with the analgesic Buprenex. Mice were single-housed and monitored during recovery.
(§2) Carrier free purified human β2-Microglobulin (Lee Biosolutions) was dissolved in PBS and administered systemically (100 μg/kg) via intraorbital in young (3 months) wild type animals, or stereotaxically (0.50 μl; 0.1 μg/μl) into the DG of the hippocampus in young (3 months) wild type and Tap1^−/− mutant. For histological analysis B2M and vehicle were administered into contralateral DG of the same animal. For behavioral analysis B2M or vehicle were administered bilaterally into the DG and mice were allowed to recover for six or 30 days prior to cognitive testing.
Spatial learning and memory was assessed using the radial arm water maze (RAWM) paradigm following the protocol described by Alamed et al. Nat. Protocols (2006) 1: 1671-1679). In this task the goal arm location containing a platform remains constant throughout the training and testing phase, while the start arm is changed during each trial. On day one during the training phase, mice are trained for 15 trails, with trials alternating between a visible and hidden platform. On day two during the testing phase, mice are tested for 15 trials with a hidden platform. Entry into an incorrect arm is scored as an error, and errors are averaged over training blocks (three consecutive trials). Investigators were blinded to genotype and treatment when scoring.

[2] = system: young adult (3 months) mice; assay: Contextual and cued fear conditioning; conditions: vs vehicle; for cued memory (freezing on re-exposure to conditioned stimulus in novel context): 24 hours after training
Protocol: as §1, §2
In this task, mice learned to associate the environmental context (fear conditioning chamber) with an aversive stimulus (mild foot shock; unconditioned stimulus, US) enabling testing for hippocampal-dependent contextual fear conditioning. As contextual fear conditioning is hippocampus and amygdala dependent, the mild foot shock was paired with a light and tone cue (conditioned stimulus, CS) in order to also assess amygdala-dependent cued fear conditioning. […] Specific training parameters are as follows: tone duration is 30 seconds; level is 70 dB, 2 kHz; shock duration is 2 seconds; intensity is 0.6 mA. This intensity is not painful and can easily be tolerated but will generate an unpleasant feeling. More specifically, on day 1 each mouse was placed in a fear-conditioning chamber and allowed to explore for 2 minutes before delivery of a 30-second tone (70 dB) ending with a 2-second foot shock (0.6 mA). Two minutes later, a second CS-US pair was delivered. On day 2 each mouse was first placed in the fear-conditioning chamber containing the same exact context, but with no CS or foot shock. Freezing was analyzed for 1-3 minutes. […] Freezing was analyzed for 1-3 minutes. Freezing was measured using a FreezeScan video tracking system and software (Cleversys, Inc).

[3] = system: Dcx-positive and Mcm2-positive cells in the dentate gyrus (DG); assay: Neurogenesis in the dentate gyrus by immunohistochemistry (Dcx, Mcm2); conditions: for number of Dcx-positive cells in the DG: B2M stereotaxically into right DG vs vehicle in contralateral DG
Protocol: as §1, §2
Tissue processing and immunohistochemistry was performed on free-floating sections following standard published techniques (Villeda, S. A., et al., “The ageing systemic milieu negatively regulates neurogenesis and cognitive function,” Nature (2011) 477: 90-94). Briefly, mice were anesthetized with 400 mg/kg chloral hydrate (Sigma-Aldrich) and transcardially perfused with 0.9% saline. Brains were removed and fixed in phosphate-buffered 4% paraformaldehyde, pH 7.4, at 4° C. for 48 h before they were sunk through 30% sucrose for cryoprotection. Brains were then sectioned coronally at 40 μm with a cryomicrotome (Leica Camera, Inc.) and stored in cryoprotective medium. […] To estimate the total number of Dcx positive cells per DG immunopositive cells in the granule cell and subgranular cell layer of the DG were counted in every sixth coronal hemibrain section through the hippocampus for a total of six sections and multiplied by 12.

[4] = system: BrdU-positive cells in the dentate gyrus (DG); assay: BrdU labeling of proliferating cells in the dentate gyrus; conditions: systemic B2M, intraorbital injections, young adult mice, vs vehicle
Protocol: as §2
For short term Brdu labeling 50 mg/kg of BrdU was injected intraperitoneally into mice daily either three or six days before sacrifice. For long term BrdU labeling 50 mg/kg of BrdU was injected into mice once a day for six days and animals were sacrificed 28 days after first administration. […] The number of BrdU-positive cells in the granule cell and subgranular cell layer of the DG were counted and multiplied by 12 to estimate the total number of BrdU-positive cells in the entire DG. To determine the fate of dividing cells a total of 200 BrdU-positive cells across 4-6 sections per mouse were analyzed by confocal microscopy for co-expression with NeuN and GFAP. The number of double-positive cells was expressed as a percentage of BrdU-positive cells. […]

[5] = General health and weight after systemic B2M administration; conditions: young adult mice, systemic B2M (100 μg/kg) by intraorbital injections vs vehicle
Protocol: as §2

[6] = local B2M, bilateral stereotaxic injections into DG
[7] = systemic B2M, intraorbital injections, young adult mice
[8] = systemic B2M, intraorbital injections, young adult mice, vs vehicle

β2-Microglobulin [B2M]
errors in locating the target platform, RAWM testing phase [1, 6]: significantly more errors
learning capacity, RAWM training phase [1, 6]: similar
errors in locating the target platform, RAWM testing phase [1, 7]: significantly more errors
learning capacity for the task, RAWM training phase [1, 7]: similar
freezing time during contextual memory testing [2, 6]: decreased freezing time
cued memory (freezing on re-exposure to conditioned stimulus in novel context) ([2]; local B2M, bilateral stereotaxic injections six days prior to testing): No differences in cued memory
cued memory (freezing on re-exposure to conditioned stimulus in novel context) ([2]; systemic B2M, intraorbital injections five times over 10 days): No differences in cued memory
freezing time during contextual memory testing ([2]; systemic B2M, intraorbital injections, young adult mice, 24 h after training): decreased freezing time
number of Dcx-positive cells in the DG ([3]; Tap1−/− young adult mice): No difference
number of Doublecortin (Dcx)-positive newly born neurons in the DG [3, 8]: significant decrease
number of Mcm2-positive progenitors in the DG [3, 8]: significant decrease
number of Dcx-positive cells in the DG ([3]; wild type young adult mice): decrease
number of proliferating cells having incorporated BrdU [4]: decrease
signs of illness or weight loss [5]: no signs of illness or weight loss
